Experimental data: publication PMC3760508 (Journal of medicinal chemistry, 2009)

Experiment: particle
Format: physicochemical
Settings: flow cytometry, in some cases confirmed by DLS

particles? lowest evaluated concentration at which particle formation was observed: >200 µM
SMILES: Nc1ccccc1-c1nnc(C(=O)NCCN2CCOCC2)o1 [Compound 17]
